Measurements reported in US9499482B2.

The chains behind the UniProt entries cited, without tags or fusion partners.
UniProt Q99705, whole entry E4Q/A5T: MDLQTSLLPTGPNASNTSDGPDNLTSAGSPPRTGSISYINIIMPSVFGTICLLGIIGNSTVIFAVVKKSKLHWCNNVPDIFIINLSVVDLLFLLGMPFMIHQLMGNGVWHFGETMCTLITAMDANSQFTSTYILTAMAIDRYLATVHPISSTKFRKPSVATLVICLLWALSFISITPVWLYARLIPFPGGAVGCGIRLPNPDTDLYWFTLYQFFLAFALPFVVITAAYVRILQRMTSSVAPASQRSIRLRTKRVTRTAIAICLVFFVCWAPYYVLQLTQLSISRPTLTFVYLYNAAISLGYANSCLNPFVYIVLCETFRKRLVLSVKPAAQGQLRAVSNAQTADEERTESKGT

Biological target: human melanin concentrating hormone receptor (MCHR1), mutated (E4Q, A5T) hMCHR1 (Homo sapiens (Human), UniProt Q99705, A5T/E4Q)
Assay: Radioligand binding assay for assessment of MCHR1 activity ([125I]-MCH competition, HEK-293 membranes)
Conditions: membranes from HEK-293 cells expressing mutated (E4Q, A5T) hMCHR1; 0.06-0.1 nM [Phe13,[125I]Tyr19]-MCH

Row | Structure (SMILES) | Ki [nM]
1 | CCc1cc(N2CC[C@H](Oc3ccc(C4CC4)cc3)C2=O)ccc1OCCN1CC[C@@H](F)C1 | 2
2 | CCc1cc(N2CC[C@H](Oc3ccc(C4CC4)cc3)C2=O)ccc1OCCN1CC[C@H](F)C1 | 3
